Measurements taken from patent US20220339416A1, “SILK FIBROIN-BASED MICRONEEDLES AND USES THEREOF” (VAXESS TECHNOLOGIES, INC., priority 2019, published 2022).

Test system: B16-F10 mouse melanoma tumor
Assay: Daily vs single bolus intratumoral administration in B16-F10 mouse melanoma tumor model
Assay type: in vivo
Details: anti-PD1 mAb 100 ug i.p. Day 4 and 9
Text: Mouse melanoma cells (B16-F10) are to be injected into the flank (right side) of mice (C57Bl/6) and a tumor is to be allowed to form. The agent will be administered intratumorally or peritumorally (i.e., intradermally or subcutaneously) either as: • 1. a single bolus, • 2. a series of fractional injections where the total dose given over the time frame is equivalent to the single bolus. These injections may be given daily or every other day. • 3. a silk microneedle patch formulated with the one or more therapeutic agents. The therapeutic agents to be investigated (i.e., as single agents and in combination) in these experiments may include, but are not limited to: • Anti-cancer agents, such as: • Chemotherapeutic agents: Gemcitabine, Doxorubicin, Oxaliplatin, Dacarbazine, Temozolomide • Targeted therapies: Vemurafenib, Dabrafenib, Trametinib • Other: mRNA encoding for anti-cancer agents • Immunomodulatory agents, such as: • Cytokines: IL-2, IL-12, IL-15, GM-CSF • Immunomodulatory agents: CpG, c-di-GMP • Checkpoint inhibitors: anti-PD1, anti-PD-L1, anti-CTLA4 • Other: mRNA encoding for cytokines and other immunomodulatory molecules
Tumor growth will be measured two to three times weekly. Animals will be euthanized when humane endpoints have been reached. […]

IL-2: cytokine interleukin 2, given intratumorally or dried in silk films
survival (Kaplan-Meier curve) (daily intratumoral doses (Days 7-11 and 21-25) compared to single bolus doses (Day 7 and 21)): better survival | tumor burden, as determined by tumor volume over time (daily intratumoral doses (Days 7-11 and 21-25, each 1/5 of bolus) compared to single bolus doses (Day 7 and 21)): lower tumor burden
